Assay outcomes from PubChem BioAssay.
GIV-Gai inh: GIV-Galpha-i interaction inhibition. P08753. Galpha-i3/FITC-GIV peptide fluorescence polarization, 90 min; active compounds read low; scaled: aluminum fluoride 0%, vehicle 100%. percent of control (FP), % (test concentration not listed). 210,000 compounds, 0.42% hits. AID 1224905;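 active = replicate mean at 85% of control or lower, very high polarization wells dropped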;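 also: lower values mean more displacement of the GIV peptide from Galpha-i3; wells of about 15 µL received 100 nL stock; the first replicate is given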
HCMV NEC inh: inhibitors of HCMV UL50-UL53 nuclear egress complex interaction | HTRF UL50-UL53 interaction, normalized percent inhibition | inhibition, % (no concentration beside the values) | 190,000 tested, 0.15% active | AID 1918969; in the data active = inhibition above about 27%, passing the limit was not always enough
GIV Gai FP conf: confirmation of inhibitors of GIV binding to rat Galpha-i3. shares compounds with GIV-Gai inh. FITC-GIV peptide binding to Galphai3, fluorescence polarization; active compounds read low. fluorescence polarization, mP at 100 µM. 580 tested, 38% active. AID 1259350;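 active = inhibition score of 15 or more, meaning 100 minus mean polarization as percent of control over three replicates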;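 also: lower mP means peptide displaced from Galphai3 so more inhibition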
GIV-Gai AS conf: GIV-Galpha-i3 inhibition, AlphaScreen confirmation; shares compounds with GIV-Gai inh; AlphaScreen Galphai3-GIV binding, purified proteins, 90 min; active compounds read low; AlphaScreen counts at 100 µM; 580 tested, 39% active;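 active = inhibition score at or above a set limit, where the score is 100 minus the three-replicate mean percent of control signal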
The depositor's hits bear a star; . = not tested or not shown. This is a sample that favours compounds with a hit; in the whole collection about 0.46% have one here.

SMILES | GIV-Gai inh | HCMV NEC inh | others
COc1ccc(-n2c(C)cc(/C=C3/C(=O)NC(=O)N(Cc4ccco4)C3=O)c2C)cc1 | 94.0 | 1.3
COc1ccc(CN2C(=O)NC(=O)/C(=C\c3cccc(OC)c3OC)C2=O)cc1 | 97.8 | 77.9*
CC(C)CC(N)C1(c2ccc(Cl)cc2)CCC1 (stereo not given) | . | 2.3
CCN(CC)c1nc2c(C)cccn2c(=O)c1C=C1C(=O)NC(=O)NC1=O | 105.7 | .
COc1cc(C=C2C(=O)NC(=O)NC2=O)ccc1OCc1ccc(C(=O)O)cc1 | 110.9 | 20.0
O=C1NC(=O)C(=Cc2ccc(OCc3ccc(C(=O)O)cc3)c(Br)c2)C(=O)N1 | 100.7 | 62.6*
CC(=O)O[C@@]12CO[C@@H]1CC(O)[C@@]1(C)C(=O)C(O)C3=C(C)C(O)C[C@@](O)(C(OC(=O)c4ccccc4)[C@H]21)C3(C)C (stereo not given in full) | . | -7.1
COc1cccc(C=C2C(=O)NC(=O)NC2=O)c1 | . | 14.0
CN1/C(=C\C=C2C(=O)NC(=O)NC2=O)C(C)(C)c2ccccc21 | 29.0* | -78.0
CN1C2CCC1CC(OC(c1ccccc1)c1ccc(Cl)cc1)C2 (stereo not given) | . | -9.4
Cc1ccc(N2C(=O)NC(=O)/C(=C\c3cc(C)n(-c4cc(C(=O)O)cc(C(=O)O)c4)c3C)C2=O)cc1 | 106.4 | 31.9*
Cc1cc(/C=C2\C(=O)NC(=O)N(c3ccc(F)cc3)C2=O)c(C)n1-c1ccc(C(=O)O)cc1 | 102.5 | -18.4
O=C1Nc2ccccc2C1=Cc1nc2ccccc2c(=O)n1-c1ccc(Br)cc1 | 104.0 | -14.2
CCn1c(O)c(C=NCCc2c[nH]c3ccccc23)c(=O)[nH]c1=O | 105.5 | -14.5
CC1(C)CC(=O)C(C2(O)C(=O)NC(=O)NC2=O)=C(O)C1 | 99.2 | 62.9*
Cc1[nH]c2ccccc2c1/C=C/c1nc2ccccc2c(=O)n1-c1ccccc1 | -70.0* | 7.4
Cc1ccccc1-n1c(/C=C/c2c(C)[nH]c3ccccc23)nc2ccccc2c1=O | 113.4 | -11.7
O=C(Nc1ccncc1)c1cc2cccnc2n(Cc2ccccc2)c1=O | 109.3 | -47.8
CCN1C[C@@]2(COC)C3[C@@H](OC)[C@H]4[C@@H]1[C@]3(C(OC)C[C@H]2O)C1C[C@@]2(O)[C@H](OC(=O)c3ccccc3)C1[C@]4(OC(C)=O)[C@@H](O)[C@@H]2OC (stereo not given in full) | . | -42.4
Cc1[nH]c2ccccc2c1CCNCc1ccco1 | . | 7.6
CCCCc1ncc(CNCCc2c(C)[nH]c3ccc(OC)cc23)[nH]1 | 20.6* | -12.6
Cc1cc(Nc2ccc(N3CCCC3)cc2)n2c(nc3ccccc32)c1C#N | 101.0 | -41.1
Cc1c(C#N)c2nc3ccccc3n2c(=O)/c1=C\Nc1ccc(N2CCOCC2)c(Cl)c1 | 56.7* | .
O=C1NC(=O)C(=Cc2cccc(OCCOc3ccc([N+](=O)[O-])cc3)c2)C(=O)N1 | 111.6 | 36.8*
O=C1NC(=O)C(=Cc2ccc(OCCOc3ccc([N+](=O)[O-])cc3)cc2)C(=O)N1 | 100.7 | -30.7

Pulled by structure from above (5):
SMILES | GIV-Gai inh | HCMV NEC inh | others
Cc1ccc(N2C(=O)NC(=O)/C(=C\c3cc(C)n(-c4cc(C(=O)O)cc(C(=O)O)c4)c3C)C2=O)cc1 | 106.4 | 31.9*
CC(C)CC(N)C1(c2ccc(Cl)cc2)CCC1 (stereo not given) | . | 2.3
Cc1[nH]c2ccccc2c1CCNCc1ccco1 | . | 7.6
Cc1c(C#N)c2nc3ccccc3n2c(=O)/c1=C\Nc1ccc(N2CCOCC2)c(Cl)c1 | 56.7* | .
CCN1C[C@@]2(COC)C3[C@@H](OC)[C@H]4[C@@H]1[C@]3(C(OC)C[C@H]2O)C1C[C@@]2(O)[C@H](OC(=O)c3ccccc3)C1[C@]4(OC(C)=O)[C@@H](O)[C@@H]2OC (stereo not given in full) | . | -42.4

The listing continues.
SMILES | GIV-Gai inh | HCMV NEC inh | others
NC(CCCCCP(=O)(O)O)C(=O)O (stereo not given) | 107.6 | 3.9
CCOc1ccc(C2CC(c3c(O)n(C)c(=O)n(C)c3=O)=NN2)cc1 (stereo not given) | 96.5 | -15.2
O=C1NC(=S)NC(=O)C1=C/C=C/c1ccco1 | 109.7 | 77.6*
CN1C(=O)NC(=O)/C(=C\C=C\c2ccco2)C1=O | 95.2 | .
O=c1cc(CN2CC=C(c3ccccc3)CC2)nc2scc(-c3ccccc3)n12 | . | -24.9
C[C@]12CC[C@H](O)C[C@@H]1CC[C@@H]1[C@@H]2CC[C@]2(C)C(=O)CC[C@@H]12 | . | -11.2
CC(c1ccccc1)N1C(=O)NC(=O)/C(=C/c2coc3ccccc3c2=O)C1=O (stereo not given) | 105.2 | .
CN1C(=O)C(=Cc2coc3ccccc3c2=O)C(=O)N(C)C1=O | 103.2 | 38.8*
CN1C(=O)C(=Cc2cn(CC(=O)N3CCCC3)c3ccccc23)C(=O)N(C)C1=O | 103.2 | .
COCCNC(=O)Cn1cc(C=C2C(=O)N(C)C(=O)N(C)C2=O)c2ccccc21 | 96.1 | -6.1 | GIV Gai FP conf=72.2;GIV-Gai AS conf=40853
CC12CC[C@H]3[C@@H](CCC4(O)C[C@H](O)CCC34/C=N/NC(=O)c3cc4c(cn3)[nH]c3ccccc34)C1(O)CCC2C1=CC(=O)OC1 (stereo not given in full) | 104.6 | .
O=C1Nc2ccccc2NC12CCNCC2 | 110.7 | .
C=CCN1C(=O)NC(=O)/C(=C/c2ccc(OCC(=O)O)c(OCC)c2)C1=O | 97.2 | 4.0
